Test results as given in patent US10662411B2, “Culture method for stable proliferation of pluripotent stem cell while maintaining undifferentiated state” (AJINOMOTO CO., INC., priority 2013, dated 2020).

Test system: induced pluripotent stem cells (iPS cells, 201B7 strain)
Assay: Medium stabilizing effect of albumin: cell number after culture in fresh medium or medium preserved at 4° C.
Format: cell-based, human
Conditions: albumin 2.6 g/l in E8 medium, 1 week culture
Procedure: In the following Examples, proliferation effects of various test compounds on human pluripotent stem cells were evaluated. As human pluripotent stem cells, induced pluripotent stem cells (iPS cells, 201B7 strain) purchased from iPS Academia Japan, Inc. were used, unless particularly specified. Cell culture was performed using a culture vessel (Becton, Dickinson and Company, Falcon culture petri dish or Falcon culture plate) coated with a basal lamina matrix under the conditions of 5% CO2/37° C.
Various test compounds were added to a medium having the “E8” composition (disclosed in Nature Methods, 2011, 8, 424-429, which is incorporated herein by reference in its entirety) considered at present to be the minimum composition for cultivating human pluripotent stem cells at given concentrations and used for culture, and the effects thereof were studied. […]
Human serum-derived albumin (Sigma-Aldrich Co. LLC: A1887) was added at a final concentration of 2.6 g/l, and the effect of albumin was examined by studying the cell numbers after culture when used immediately after preparation for culture or when used after preservation at 4° C. for 3 weeks after the preparation. […] Viable cell number was measured by Trypan Blue (Life Technologies: 15250-061) staining using a hemocytometer.

## albumin: Human serum-derived albumin (Sigma-Aldrich Co. LLC: A1887)
Used after preservation at 4° C. for 3 weeks
  cell proliferation (viable cell number after culture): obvious cell proliferation was observed
Used immediately after preparation, compared with albumin-free medium
  cell proliferation (viable cell number after culture): equivalent cell proliferation was observed with or without albumin addition
